For 1 molecule, IC50 results are on record in ChEMBL document CHEMBL3758129, “Design, synthesis and anti-HIV evaluation of novel diarylpyridine derivatives targeting the entrance channel of NNRTI binding pocket” (Eur J Med Chem, 2016).

Structures are written as SMILES. pIC50: −log10 of the molar value.

The target in this experiment is Human immunodeficiency virus type 1 reverse transcriptase (Human immunodeficiency virus 1, UniProt Q72547). Description: Inhibition of HIV1 reverse transcriptase assessed as reduction in biotin-dUTP incorporation using poly(rA)-oligo(dT) as template/primer and digoxigenin-dUTP/biotin-dUTP/dTTP nucleotides incubated for 1 hr by ELISA. Background: An ELISA detects its analyte on a solid surface through an enzyme-linked reagent.

One may read the pIC50 as the IC50 on a negative log10 scale, so that one unit is a factor of ten. As for `Cc1cc(C#N)cc(C)c1Oc1nc(Nc2ccc(C#N)cc2)nc(N)c1Br` [ETRAVIRINE], the pIC50 was 5.51.
